Reference: patent US9849116B2 (KNOPP BIOSCIENCES LLC, priority 2008, dated 2017)

Legend:
[1] = tested on: minipigs; conditions: chronic dosing, dose reduced to 50 mg/kg at month 2
[2] = clinical; conditions: human, plasma, po, 50 mg

In the case of `CCCN[C@@H]1CCc2nc(N)sc2C1` [(R)-pramipexole, (6R)-4,5,6,7-tetrahydro-N6-propyl-2,6-benzothiazole-diamine], the “mortality at the 75 mg/kg level” value [1] is reported as “mortalities” and the half-life [2] is reported as 6.34 ± 1.31 h.
